From US20190209515A1, “Treatment of Bladder Cancer by Intratumoral Injection of Taxane Particles” (CRITITECH, INC., priority 2018, published 2019)

Conditions: not told, pH 4

## docetaxel
  solubility in the Receptor Fluid: sufficient to maintain sink conditions
